Measurements reported in patent US20040142379A1, “Affinity fishing for ligands and proteins receptors” (Carlsberg Research Laboratory, priority 2003, published 2004).

Target: six protein mixture: Con A, P. sativum lectin, L. culinaris lectin, W. floribunda lectin, Glyceraldehyde 6-phosphate, and bovine serum albumin (BSA) (Canavalia ensiformis, UniProt P02866)
Conditions: among the lectins of the six protein mixture
Procedure: The ligand-resin was washed with 10 mM PBS buffer, pH 6.8 containing 1 mM CaCl2 and 1 mM MnCl2. A mixture of unlabelled proteins, Glycerol-3-phosphate: BSA: Wisteria floribunda: Lens culinaris: Pisatum sativum in a […] weight ratio was dissolved in 10 mM PBS buffer, pH 6.8 containing 1 mM CaCl2 and 1 mM MnCl2 The protein mix (3.5 mL, ca. 1.2 mg protein) was applied to each ligand column and allowed to bind overnight. The column was washed with the same buffer until no more protein was eluted (Abs 280 nm). Bound protein was eluted from the column using 0.5M mannose in 10 mM PBS buffer, pH 8.0 containing CaCl2 and 1 mM MnCl2 (buffer filtered to remove CaOH2 formed) for glycopeptides containing only mannose, 0.5 M N-acetylglucosamine in 10 […] mM PBS buffer, pH 8.0 containing CaCl2 and 1 mM MnCl2 (buffer filtered to remove CaOH2 formed) for glycopeptides containing only GlcNAc, and both buffers for glycopeptides containing both mannose and GlcNAc, or for unglycosylated peptides. Samples were obtained in about 700 μL volume and frozen for later protein identification.

GlcNN-Trp-Phe-Asp-Trp-Pro
selectivity of lectin binding: binds only to Con A and not to the other lectins
